Measurements reported in patent US5624941A, “Pyrazole derivatives, method of preparing them and pharmaceutical compositions in which they are present” (Sanofi, priority 1992, dated 1997).

By UniProt entry, the sequences of proteins in these tests, tags left out.
UniProt P20272, whole entry: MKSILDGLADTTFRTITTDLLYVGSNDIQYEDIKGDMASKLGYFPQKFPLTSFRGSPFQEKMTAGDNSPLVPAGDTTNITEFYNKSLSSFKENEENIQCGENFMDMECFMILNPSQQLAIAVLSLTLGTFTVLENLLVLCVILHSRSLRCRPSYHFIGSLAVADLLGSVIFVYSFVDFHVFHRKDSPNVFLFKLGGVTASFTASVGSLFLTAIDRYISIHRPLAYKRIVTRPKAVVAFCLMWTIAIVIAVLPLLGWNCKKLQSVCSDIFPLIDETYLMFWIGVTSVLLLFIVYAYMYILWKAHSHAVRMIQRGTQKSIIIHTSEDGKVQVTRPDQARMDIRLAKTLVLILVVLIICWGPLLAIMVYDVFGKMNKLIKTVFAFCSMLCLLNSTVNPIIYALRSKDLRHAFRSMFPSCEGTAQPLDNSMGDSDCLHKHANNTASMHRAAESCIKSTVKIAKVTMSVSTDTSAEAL

Target: central cannabinoid receptors (Rattus norvegicus, UniProt P20272)

## Cc1c(C(=O)NN2CCCCC2)nn(-c2ccc(Cl)cc2Cl)c1-c1ccc(Cl)cc1 [N-piperidino-5-(4-chlorophenyl)-1-(2,4-dichlorophenyl)-4-methyl-pyrazole-3-carboxamide]
  antagonism of the central cannabinoid receptors: potent and selective antagonist
